Here are results for 1 compound from patent US20160318866A1, “SUBSTITUTED BIPIPERIDINYL DERIVATIVES” (Bayer Pharma Aktiengesellschaft, priority 2013, published 2016).

Protein sequences, listed by entry. Tags and fused reporters are not part of them.
UniProt P18825, whole entry: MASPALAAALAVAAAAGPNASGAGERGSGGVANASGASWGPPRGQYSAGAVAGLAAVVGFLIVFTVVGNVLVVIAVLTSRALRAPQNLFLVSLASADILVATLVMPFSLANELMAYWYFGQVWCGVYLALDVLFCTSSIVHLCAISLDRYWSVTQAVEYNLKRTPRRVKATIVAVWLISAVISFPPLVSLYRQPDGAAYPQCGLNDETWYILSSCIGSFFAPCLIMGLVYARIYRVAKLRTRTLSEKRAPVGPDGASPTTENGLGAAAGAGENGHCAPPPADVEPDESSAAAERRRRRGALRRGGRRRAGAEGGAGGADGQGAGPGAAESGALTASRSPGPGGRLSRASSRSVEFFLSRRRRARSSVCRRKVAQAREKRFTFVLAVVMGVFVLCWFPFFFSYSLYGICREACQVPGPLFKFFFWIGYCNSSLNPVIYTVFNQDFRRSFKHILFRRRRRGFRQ

The target of this assay is human α2C receptor (Homo sapiens, UniProt P18825). Nature of the assay: Antagonism against the adrenoreceptor α2C (luminescence, recombinant CHO cell line). The settings on record: noradrenaline 20 nM, tested up to 10 μM.

As for `O=C(c1ccc(C2(O)COC2)cc1)N1CCC(N2CCCC(COC3CCC3)C2)CC1` (stereo not shown), the IC50 came to 3 nM.
